This test has as its target αβ-tubulin (tubulin dimer; as free tubulin, Tau-induced microtubules or Taxol-stabilized microtubules) (lamb (purified from lamb brains)).

Turning to “Tau labeled with MTSL on its two natural cysteines (Tau^MTSL) (from UniProt P10636-8 1-441) (natural protein)”, the k of MTSL label release (thiol-disulfide exchange) by EPR, h(−1)/h(0) against time; Induced-MTs, 10 µM labeled protein, 1:2 with tubulin, 37 °C came out at 0.23 min⁻¹ and the k of MTSL label release (thiol-disulfide exchange) by EPR, h(−1)/h(0) against time; Taxol-MTs, 10 µM labeled protein, 1:2 with tubulin, 37 °C is 0.054 min⁻¹.
